Values quoted from earlier work as cited in patent publication US7179597B2, “Genetic diagnosis for QT prolongation related adverse drug reactions” (Georgetown University, priority 2000, dated 2007).

Amino acid sequences for entries named in this document (tags omitted).
UniProt P10635, whole entry: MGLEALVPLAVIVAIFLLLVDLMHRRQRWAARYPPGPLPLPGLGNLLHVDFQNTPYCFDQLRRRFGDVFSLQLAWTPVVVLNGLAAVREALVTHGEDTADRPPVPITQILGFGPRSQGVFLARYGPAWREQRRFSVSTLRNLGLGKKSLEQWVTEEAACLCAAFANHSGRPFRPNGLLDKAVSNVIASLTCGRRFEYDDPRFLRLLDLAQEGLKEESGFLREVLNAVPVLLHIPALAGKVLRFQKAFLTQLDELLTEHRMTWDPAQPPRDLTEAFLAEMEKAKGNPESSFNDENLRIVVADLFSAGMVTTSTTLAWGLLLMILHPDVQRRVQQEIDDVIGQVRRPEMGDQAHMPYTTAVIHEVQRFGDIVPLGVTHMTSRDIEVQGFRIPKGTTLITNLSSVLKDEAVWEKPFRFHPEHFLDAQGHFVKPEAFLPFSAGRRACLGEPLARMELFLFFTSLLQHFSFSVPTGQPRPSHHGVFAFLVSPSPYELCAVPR

Tests used:
CYP2D6 = CYP2D6 (Homo sapiens, UniProt P10635); conditions: Table 3; cited from earlier work
[1] = Table 2; drug labeling; cited from earlier work

Cc1nc2n(c(=O)c1CCN1CCC(c3noc4cc(F)ccc34)CC1)CCCC2 [Risperidone]
Interactions: cytochrome P-450 isoform 2D6, substrate or inhibitor (CYP2D6): Substrate

Levomethadyl
QT [1]: Yes
